Compound activity deposited in PubChem BioAssay by several laboratories.
Rows were chosen to be rich in hits. Some 2.1% of all compounds tested hit in one or more screens of this group.
Rev-erbA mod – modulates human Rev-erb alpha binding to DNA; Rev-erbα–FITC-DNA binding, fluorescence polarization, 90 min; P20393; AID 1259318; 370,000 tested, 0.79% active; activity, % at 10 µM;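 active means activity above about 14%, limit read from the data; passing the limit was not always enough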
PDI turbidity – blocks human protein disulfide isomerase activity | P07237 | PDI insulin aggregation turbidity, A650, 90 min | inhibition, % at 10 µM | 350,000 tested, 0.052% active | AID 588391;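 active means mean inhibition across replicates of 30% or more, whatever share of single replicates reach that level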
Yeast UUG start – alters start codon recognition fidelity in yeast. 350,000 tested, 0.13% active. activity score, % at 18.7 µM. S. cerevisiae UUG-firefly luciferase reporter, luminescence/redox ratio;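 active = replicate mean at a twofold rise or more, about +100% in these data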;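 also: firefly luciferase made from a UUG start codon reports start codon fidelity; reporter light over untreated wells divided by growth signal over untreated wells; some hits fall short of that in this replicate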
SMARCA2 act – activators of SMARCA2 function; MG213 cells, MMTV-luciferase reporter, dexamethasone, overnight; activation, % at 9.1 µM; 370,000 tested, 1% active; AID 652017; in the data active means activation above about 7.8%
INS-1E GSIS act – GLuc luminescence reporter in INS-1E cells, primary screen for activators of glucose-dependent secretion of insulin; INS-1E GLuc reporter insulin secretion, 2-3 h; 370,000 tested, 0.61% active; activation, % at 16.6 µM;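 active means lowest replicate activation of at least 40%, so every replicate reaches that level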
ERp5 block – blocks human ERp5 reductase activity on insulin | Q15084 | ERp5 insulin aggregation, absorbance 650 nm, 90 min | inhibition, % at 9.99 µM | 350,000 tested, 0.05% active;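 active means mean replicate inhibition above about 25%, with every replicate also reaching it, limit read from the data, passing the limit was not always enough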
NR1D1 mod conf – Rev-erb alpha (human) modulation, hit confirmation. AID 1259319. 3,000 tested, 61% active. Rev-erb alpha FITC-DNA binding, fluorescence polarization, 90 min. shares compounds with Rev-erbA mod. activation, % at 25 µM;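 active means activation at or above a set limit, or at least 3 SD above the negative control mean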
RORg counter – RORgamma DNA-binding activity, dose-response counter-screen; IC50, µM; AID 1259320; 910 tested, 8% active; shares compounds with Rev-erbA mod; purified RORgamma protein-FITC-DNA binding, fluorescence polarization;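 active means Compounds whose fitted half-maximal concentration for disrupting protein-DNA binding is below 10 micromolar; the record names Rev-erb in its text, so the target is in doubt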
Large screens that a line does not name were inactive (follow-up assays come after a bar, where they were run).

Cc1cc(=O)oc2cc3oc(=O)cc(C)c3cc12	none (no result: INS-1E GSIS act)
Cc1cc(=O)oc2c(C)cc(C(C)(C)C)cc12	Rev-erbA mod 27 (no result: INS-1E GSIS act) | NR1D1 mod conf 26
N#C[C@H]1[C@H](c2ccccc2)[C@H](CO)N1C(=O)CN1CCOCC1	none (no result: Rev-erbA mod, PDI turbidity, SMARCA2 act, INS-1E GSIS act)
Cc1ccccc1/C=C1\SC(=S)N(/N=C/c2cc([N+](=O)[O-])ccc2O)C1=O	Rev-erbA mod 22 | NR1D1 mod conf inactive
COc1ccc2c3c(n(C)c2c1)[C@H](CO)N(C(=O)CN(C)C)CC31CN(C(=O)C2CCC2)C1	none (no result: Rev-erbA mod, PDI turbidity, Yeast UUG start, SMARCA2 act, ERp5 block)
CN1C(=O)c2cc(NC(=O)c3ccc(F)cc3)ccc2OC[C@H]2O[C@H](CC(=O)NC3CCC3)CC[C@@H]21	none (no result: Rev-erbA mod, PDI turbidity, SMARCA2 act)
O=C(COc1ccc2c(-c3ccccc3)cc(=O)oc2c1)Nc1ccc(CCO)cc1	Rev-erbA mod 53 | NR1D1 mod conf 25
CC1CCN(S(=O)(=O)c2ccc3c(c2)c(=O)c(C(=O)NCc2cccs2)cn3C)CC1	Rev-erbA mod 29 (no result: ERp5 block) | NR1D1 mod conf inactive
Cc1onc(-c2ccccc2)c1C(=O)Nc1cc(C(F)(F)F)ccc1N1CCOCC1	Rev-erbA mod 22 (no result: INS-1E GSIS act, ERp5 block) | NR1D1 mod conf 33
Cc1onc(-c2ccccc2)c1C(=O)Nc1ccccc1N1CCOCC1	none (no result: INS-1E GSIS act, ERp5 block)
N#C/C(=C\c1ccc(-c2ccc(C(=O)O)cc2)o1)c1nc2ccccc2[nH]1	Rev-erbA mod 42 (no result: Yeast UUG start) | NR1D1 mod conf 27
CC(C)c1cn(CC[C@@H]2CC[C@H](NS(=O)(=O)Cc3ccccc3)[C@H](CO)O2)nn1	none (no result: Rev-erbA mod, PDI turbidity, SMARCA2 act)
Cc1ccc(C)c(NC(=O)CN(C)C(=O)c2ccc(-c3ccc(Cl)cc3)o2)c1	Rev-erbA mod 26 (no result: Yeast UUG start) | NR1D1 mod conf 18
COc1ccc(-c2nnc3ccc(SCC(=O)Nc4nc5ccc(C)cc5s4)nn23)cc1OC	Rev-erbA mod 25 (no result: Yeast UUG start, ERp5 block) | NR1D1 mod conf 26
C[C@H](CO)N1C[C@H](C)[C@@H](CN(C)C(=O)c2cccnc2)Oc2cc(C3=CCCC3)ccc2S1(=O)=O	none (no result: Rev-erbA mod, PDI turbidity, SMARCA2 act)
CCCCCCn1cnc2c(c1=O)c1nc3ccccc3nc1n2Cc1cccs1	Rev-erbA mod 31 (no result: INS-1E GSIS act, ERp5 block) | NR1D1 mod conf inactive
Cc1ccccc1S(=O)(=O)NCC[C@@H]1CC[C@H](NS(=O)(=O)c2ccccc2C)[C@H](CO)O1	none (no result: Rev-erbA mod, PDI turbidity, Yeast UUG start, SMARCA2 act)
CN(C)c1ccc(N=Nc2ccccc2C(=O)OCC(=O)NCC2CCCCC2)cc1	Rev-erbA mod 29 (no result: Yeast UUG start) | NR1D1 mod conf 36 | RORg counter inactive
CN(C)c1ccc(N=Nc2ccccc2C(=O)OCC(=O)NC2CCCC2)cc1	none (no result: Yeast UUG start, ERp5 block)
Cc1ccc2nc(N3CCN(S(=O)(=O)c4ccc(C)c(Cl)c4)CC3)c(C#N)cc2c1	Rev-erbA mod 189 (no result: ERp5 block) | NR1D1 mod conf 145 | RORg counter inactive
C[C@@H]1CCCCO[C@H](CN(C)S(=O)(=O)c2cccs2)[C@H](C)CN([C@@H](C)CO)C(=O)c2cc(NS(C)(=O)=O)ccc2O1	none (no result: Rev-erbA mod, PDI turbidity, SMARCA2 act)
Cc1noc(C)c1NC(=O)Nc1ccc2c(c1)C(=O)N(C)[C@H]1CC[C@@H](CC(=O)N(C)C)O[C@H]1CO2	none (no result: Rev-erbA mod, PDI turbidity, SMARCA2 act)
CCOc1ccc(CCNC(=O)c2cc(-c3ccccc3)c(N3CCOCC3)s2)cc1	Rev-erbA mod 91 (no result: PDI turbidity) | NR1D1 mod conf 80 | RORg counter inactive
CC(C)NC(=O)N(C)C[C@H]1Oc2ccc(NC(=O)Nc3cccc4ccccc34)cc2CC(=O)N([C@@H](C)CO)C[C@H]1C	none (no result: Rev-erbA mod, PDI turbidity, SMARCA2 act)
COc1ccc(NC(=O)CCCn2cc([N+](=O)[O-])cn2)cc1	Rev-erbA mod 26 (no result: Yeast UUG start) | NR1D1 mod conf inactive
COc1ccc(NC(=S)NNC(=O)CCn2cc([N+](=O)[O-])cn2)cc1	none (no result: Yeast UUG start)
CN(C)c1ccc(C=c2c3cc(O)ccc3n3c2cc(-c2ccccc2)[n+]3C)cc1	Rev-erbA mod 22 (no result: Yeast UUG start) | NR1D1 mod conf inactive
C[n+]1c(-c2ccccc2)cc2c(=Cc3ccccc3)c3ccccc3n21	none (no result: Yeast UUG start)
Fc1cnc(N2CCc3ccccc32)nc1N1CCc2ccccc21	Rev-erbA mod 57 (no result: INS-1E GSIS act, ERp5 block) | NR1D1 mod conf 137 | RORg counter inactive
CC1(C)CC(=O)c2cnc(N3CCc4ccccc43)nc2C1	none (no result: Yeast UUG start)
O=C(CN1C(=O)c2cccc3cccc1c23)N1CCN(c2cccc(Cl)c2)CC1	Rev-erbA mod 49 (no result: INS-1E GSIS act, ERp5 block) | NR1D1 mod conf 27
Cc1noc(C)c1NC(=O)N(C)C[C@@H]1OCCCC[C@@H](C)Oc2ccc(NS(=O)(=O)c3ccccc3)cc2C(=O)N([C@H](C)CO)C[C@H]1C	none (no result: Rev-erbA mod, PDI turbidity, SMARCA2 act)
O=C(C[C@@H]1C[C@@H]2c3cc(NS(=O)(=O)c4ccc(F)cc4)ccc3O[C@@H]2[C@@H](CO)O1)NCC1CC1	none (no result: Rev-erbA mod, PDI turbidity, SMARCA2 act, ERp5 block)
COc1ccc(C(=O)Nc2ccccc2C(=O)Nc2ccccc2)cc1	Rev-erbA mod 68 | NR1D1 mod conf 45 | RORg counter inactive
CCCNC(=O)C(Cc1ccc(OC)cc1)NC(=O)c1ccc(Cl)cc1 (stereo not drawn)	none
COc1ccc(C(=O)NNC(=O)C(Cc2ccc(O)cc2)NC(=O)c2ccccc2NC(=O)c2ccc(OC)cc2)cc1 (stereo not drawn)	Rev-erbA mod 45 (no result: ERp5 block) | NR1D1 mod conf 36 | RORg counter inactive
COc1ccc(NC(=O)NNC(=O)c2cc3ccccc3cc2O)cc1	Rev-erbA mod 46 | NR1D1 mod conf 30 | RORg counter inactive
COc1ccc(C(=O)Nc2ccccc2C(=O)NC(Cc2ccc(O)cc2)C(=O)NNC(=O)c2ccccc2Cl)cc1 (stereo not drawn)	Rev-erbA mod 24 (no result: ERp5 block) | NR1D1 mod conf 19
CC(=O)N(C)C[C@H]1Oc2ccc(NC(=O)NC(C)C)cc2CC(=O)N(C)C[C@H]1C	none (no result: Rev-erbA mod, PDI turbidity, Yeast UUG start, SMARCA2 act, ERp5 block)
O=C(Cc1ccccn1)NCC[C@H]1CC[C@H](NC(=O)Nc2ccccc2)[C@H](CO)O1	none (no result: Rev-erbA mod, PDI turbidity, SMARCA2 act)
Cc1cc(Nc2ccccc2)nc(-c2ccccc2O)n1	none (no result: INS-1E GSIS act, ERp5 block)
CCOC(=O)c1ccc(Nc2cc(C)nc(-c3ccccc3O)n2)cc1	Rev-erbA mod 38 | NR1D1 mod conf inactive
Cc1nc(N(C)C2CCCCC2)c2nnn(Cc3ccc(F)cc3)c2n1	Rev-erbA mod 31 | NR1D1 mod conf inactive
Cc1ccc(C)c(C2NC(=O)c3ccccc3N2)c1 (stereo not drawn)	none
Cn1cc(C2NC(=O)c3ccccc3N2)c2ccccc21 (stereo not drawn)	Rev-erbA mod 25 (no result: Yeast UUG start) | NR1D1 mod conf 18
O=c1c2cc(F)ccc2[nH]c(=S)n1Cc1ccc(F)cc1	Rev-erbA mod 57 | NR1D1 mod conf 17
NS(=O)(=O)c1ccc(CCn2c(=S)[nH]c3ccc(F)cc3c2=O)cc1	Rev-erbA mod 58 (no result: Yeast UUG start) | NR1D1 mod conf 40 | RORg counter inactive
O=c1c2ccccc2[nH]c(=S)n1Cc1ccc2c(c1)OCO2	Rev-erbA mod 38 | NR1D1 mod conf 48 | RORg counter inactive
